What was measured:
[1] = system: mice; experiment: Acute toxicity by intravenous injection in mice
[2] = target: aminopeptidase M (Sus scrofa, UniProt P15145); experiment: Inhibition of aminopeptidase M (L-leucine-β-naphthylamide substrate); assay type: biochemical
[3] = system: antibody-forming cells in spleen; experiment: Humoral antibody formation: plaque-forming cells in spleen of SRBC-immunized mice (Jerne's hemolytic plaque technique); assay type: in vivo, CDF-mice; details: intraperitoneal injection, probestin 1000 μg to 62.5 μg/mouse
Method: CDF-mice were immunized by intravenous injection of 10^8 sheep red blood cells (SRBC). 1000 μg/mouse, 250 μg/mouse or 62.5 μg/mouse of probestin was administered by intraperitoneal injection into the mice at the time of the immunization with SRBC (0 hour) and then totally three times, namely 24, 48 and 72 hours after the immunization. Four days after the immunization with SRBC, the number of the plaque-forming cell (PFC) (namely, the antibody-forming cells) in spleen was enumerated by the known Jerne's hemolytic plaque technique [Jerne, N.K; A. A. Nordin & C. Henry; "The agar plaque technique for recognizing antibody-producing cells in cell-bound antibodies" pp. 109-122 published by Wister Institute press, Philadelphia (1963)].

Protein sequences, listed by entry. Tags and fused reporters are not part of them.
UniProt P15145, whole entry: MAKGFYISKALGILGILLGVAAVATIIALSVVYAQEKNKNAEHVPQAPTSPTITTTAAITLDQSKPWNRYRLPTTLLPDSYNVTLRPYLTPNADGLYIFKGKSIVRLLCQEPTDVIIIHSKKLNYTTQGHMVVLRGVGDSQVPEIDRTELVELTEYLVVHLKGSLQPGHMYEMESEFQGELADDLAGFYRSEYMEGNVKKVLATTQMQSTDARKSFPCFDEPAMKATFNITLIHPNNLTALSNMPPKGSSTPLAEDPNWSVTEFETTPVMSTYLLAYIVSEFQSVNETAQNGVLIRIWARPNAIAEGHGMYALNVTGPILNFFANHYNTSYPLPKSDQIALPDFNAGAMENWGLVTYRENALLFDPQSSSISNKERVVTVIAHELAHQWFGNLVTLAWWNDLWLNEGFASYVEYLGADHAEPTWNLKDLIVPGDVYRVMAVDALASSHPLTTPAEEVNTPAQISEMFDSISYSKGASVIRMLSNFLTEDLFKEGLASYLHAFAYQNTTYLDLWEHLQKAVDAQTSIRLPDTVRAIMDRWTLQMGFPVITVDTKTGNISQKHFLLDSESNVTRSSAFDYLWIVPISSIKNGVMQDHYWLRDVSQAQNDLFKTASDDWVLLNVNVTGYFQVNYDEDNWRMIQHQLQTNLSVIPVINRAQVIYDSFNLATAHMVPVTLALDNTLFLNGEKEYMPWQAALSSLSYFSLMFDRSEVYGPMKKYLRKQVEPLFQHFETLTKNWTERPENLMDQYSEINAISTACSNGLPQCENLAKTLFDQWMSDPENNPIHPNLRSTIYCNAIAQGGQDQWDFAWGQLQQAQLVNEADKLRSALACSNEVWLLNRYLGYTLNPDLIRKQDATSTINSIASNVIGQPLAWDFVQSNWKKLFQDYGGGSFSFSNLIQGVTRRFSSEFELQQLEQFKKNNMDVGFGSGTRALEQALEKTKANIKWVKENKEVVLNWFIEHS
UniProt P28838, whole entry: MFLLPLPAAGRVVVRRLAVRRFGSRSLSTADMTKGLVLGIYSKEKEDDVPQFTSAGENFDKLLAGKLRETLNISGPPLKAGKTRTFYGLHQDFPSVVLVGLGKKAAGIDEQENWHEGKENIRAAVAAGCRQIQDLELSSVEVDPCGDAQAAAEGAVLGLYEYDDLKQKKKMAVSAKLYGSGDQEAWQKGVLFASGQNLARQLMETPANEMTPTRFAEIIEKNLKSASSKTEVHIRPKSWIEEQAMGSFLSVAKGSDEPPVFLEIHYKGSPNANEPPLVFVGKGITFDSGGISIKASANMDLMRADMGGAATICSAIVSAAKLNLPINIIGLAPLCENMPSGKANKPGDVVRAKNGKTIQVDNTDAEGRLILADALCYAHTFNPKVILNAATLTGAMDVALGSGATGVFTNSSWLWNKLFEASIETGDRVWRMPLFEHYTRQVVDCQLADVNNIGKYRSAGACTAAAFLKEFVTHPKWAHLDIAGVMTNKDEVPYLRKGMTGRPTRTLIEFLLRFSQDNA
UniProt Q9H4A4, whole entry: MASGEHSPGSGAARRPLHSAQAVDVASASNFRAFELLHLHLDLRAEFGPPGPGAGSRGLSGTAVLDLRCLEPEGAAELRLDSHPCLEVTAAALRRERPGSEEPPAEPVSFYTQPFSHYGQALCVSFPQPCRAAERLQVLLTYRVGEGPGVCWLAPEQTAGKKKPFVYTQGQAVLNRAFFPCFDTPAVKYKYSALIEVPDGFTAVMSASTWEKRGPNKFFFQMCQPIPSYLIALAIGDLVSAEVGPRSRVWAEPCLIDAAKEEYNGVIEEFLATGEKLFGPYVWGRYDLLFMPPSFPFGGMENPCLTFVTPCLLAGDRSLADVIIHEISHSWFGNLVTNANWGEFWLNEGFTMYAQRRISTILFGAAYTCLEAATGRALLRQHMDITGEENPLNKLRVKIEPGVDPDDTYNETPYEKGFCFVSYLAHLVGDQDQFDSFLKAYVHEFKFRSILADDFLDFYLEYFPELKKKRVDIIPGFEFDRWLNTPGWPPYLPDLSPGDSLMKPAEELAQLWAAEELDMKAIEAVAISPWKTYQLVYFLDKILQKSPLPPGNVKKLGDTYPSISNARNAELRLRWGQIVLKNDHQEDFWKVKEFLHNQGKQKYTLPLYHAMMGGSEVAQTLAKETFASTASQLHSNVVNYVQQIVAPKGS
UniProt Q07075, whole entry: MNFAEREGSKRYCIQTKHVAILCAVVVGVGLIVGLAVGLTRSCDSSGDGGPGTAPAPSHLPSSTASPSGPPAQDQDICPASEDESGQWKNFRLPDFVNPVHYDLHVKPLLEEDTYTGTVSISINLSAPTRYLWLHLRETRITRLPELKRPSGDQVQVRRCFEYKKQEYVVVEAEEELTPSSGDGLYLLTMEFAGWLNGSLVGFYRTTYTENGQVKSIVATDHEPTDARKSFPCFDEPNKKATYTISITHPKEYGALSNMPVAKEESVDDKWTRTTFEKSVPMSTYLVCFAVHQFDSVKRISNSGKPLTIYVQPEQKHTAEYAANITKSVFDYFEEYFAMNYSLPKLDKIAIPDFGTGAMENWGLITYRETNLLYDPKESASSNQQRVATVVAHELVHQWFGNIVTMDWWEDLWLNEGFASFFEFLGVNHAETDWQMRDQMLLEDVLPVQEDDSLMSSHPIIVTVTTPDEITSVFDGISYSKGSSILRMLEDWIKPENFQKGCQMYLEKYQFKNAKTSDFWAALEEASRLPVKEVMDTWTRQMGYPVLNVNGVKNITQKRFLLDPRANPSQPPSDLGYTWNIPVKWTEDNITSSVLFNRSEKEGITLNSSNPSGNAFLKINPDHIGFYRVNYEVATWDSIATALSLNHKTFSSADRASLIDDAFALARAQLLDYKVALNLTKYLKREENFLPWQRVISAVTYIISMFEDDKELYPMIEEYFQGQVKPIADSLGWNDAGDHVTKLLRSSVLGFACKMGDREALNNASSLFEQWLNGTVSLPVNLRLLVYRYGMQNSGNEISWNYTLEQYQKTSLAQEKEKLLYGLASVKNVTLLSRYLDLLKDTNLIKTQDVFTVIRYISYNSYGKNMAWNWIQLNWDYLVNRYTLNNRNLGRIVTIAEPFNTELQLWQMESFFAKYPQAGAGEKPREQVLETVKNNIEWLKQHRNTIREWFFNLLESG

[4] = Solubility in solvents; assay type: physicochemical; details: water and organic solvents
[5] = target: Leucine-aminopeptidase (Homo sapiens, UniProt P28838); experiment: Inhibition of leucine-aminopeptidase
[6] = target: Aminopeptidase-B (Homo sapiens, UniProt Q9H4A4); experiment: Inhibition of aminopeptidase-B
[7] = target: Aminopeptidase-A (Homo sapiens, UniProt Q07075); experiment: Inhibition of aminopeptidase-A

CCC(C)CCC(N)C(O)C(=O)NC(CC(C)C)C(=O)N1CCCC1C(=O)N1CCCC1C(=O)O (stereo not shown)
LD50 [1]: greater than 250 mg/kg
Value of IC50 against Aminopeptidase M [2]: 0.028 µg/mL
Effect on number of antibody-forming cells in spleen (in words) [3]: increased the number of the antibody-forming cells in spleen of the mice substantially as much as probestin
Solubility [4]: Readily soluble in water, methanol and dimethyl-sulfoxide, soluble in acetone and chloroform, but insoluble in ethyl acetate and hexane
Value of IC50 against Leucine-aminopeptidase [5]: 0.3 µg/mL
Value of IC50 against Aminopeptidase-B [6]: 60.0 µg/mL
Value of IC50 against Aminopeptidase-A [7]: 91.1 µg/mL

Reference: patent US5021549A, “Physiologically active substances, probestin and prostatin and production thereof” (priority 1987, dated 1991)
